Test results published in PubChem BioAssay AID686979 (National Center for Advancing Translational Sciences (NCATS), 2013).
The list shows a part of the results, in another mix than the full data. Records with an inconclusive call do not appear. A call without a number means that no potency is given here. Some structures show a salt or complex split into parts, the way the source records it. Activity calls are given as the source filed them. Calls follow the shape of the dose curve; as a rule, active = well fitted inhibition curve with a large enough effect; inconclusive = small, poorly fitted or top-dose-only effect; inactive = flat fitted curve, though single readings scatter.

test: qHTS for Inhibitors of human tyrosyl-DNA phosphodiesterase 1 (TDP1): qHTS in cells in presence of CPT; details: chicken DT40 Tdp1-/-;hTDP1 cells + 20 nM CPT, ATP luminescence, 48 h; series mostly up to 46.2 µM; also: nearly all actives have a fitted effect of over 55% in size
Potency is read from the fitted curve at half-maximal effect.

SMILES	Potency
CN(C)C1(CNC(=O)c2cccc(C#N)c2)CCCCC1	inactive
c1ccc(CN2CCC(Nc3ccccc3)CC2)cc1	inactive
CCCN1CCC(Nc2cc(OC)cc(OC)c2)CC1	inactive
N#Cc1ccc(C(=O)NCC2(N3CCCCC3)CCCCC2)cc1	inactive
CCOC(=O)C(CC)C1=NC(C)(C)Cc2ccccc21.O=[N+]([O-])c1cc([N+](=O)[O-])c(O)c([N+](=O)[O-])c1 (stereo not given)	inactive
CCOC(=O)N1CCC(Nc2ccc(C)cc2)CC1	inactive
N/C(=N\O)c1c(N)no[n+]1[O-]	inactive
O=C(O)c1cccc(Nc2c([N+](=O)[O-])cc([N+](=O)[O-])cc2[N+](=O)[O-])c1	inactive
COc1ccc(C(=O)NCC2(N3CCOCC3)CCCCC2)cc1OC	inactive
COc1cc(OC)cc(C(=O)NCC2(N3CCOCC3)CCCCC2)c1	inactive
CCC(CO)(C(=O)OC1CN2CCC1CC2)c1ccccc1 (stereo not given)	inactive
CN1CCC(Nc2ccc(Cl)cc2)CC1	inactive
CN1CCC(Nc2ccc(F)c(Cl)c2)CC1	inactive
CC(C)(C)OC(=O)N1CCC(Nc2ccccc2)CC1	inactive
O=C(O)C1(Nc2ccccc2)CCN(Cc2ccccc2)CC1	inactive
CCCOc1ccc(C(=O)NCC2(N(C)C)CCCCC2)cc1	inactive
Cc1ccccc1NC1(C#N)CCN(Cc2ccccc2)CC1	inactive
CCN1CCC(Nc2cccc(F)c2)CC1	inactive
Cc1ccccc1C(=O)NCC1(N(C)C)CCCCC1	inactive
O=C(NCC1(N2CCCCC2)CCCCC1)c1ccco1	inactive
CN(C)c1ccc(C(=O)NCC2(N3CCCCC3)CCCCC2)cc1	inactive
CN(C)C1(CNC(=O)c2ccc(C(C)(C)C)cc2)CCCCC1	active: 18.4 µM

SMILES	Potency
COc1cc(OC)cc(C(=O)NCC2(N3CCCCC3)CCCCC2)c1	inactive
Cc1ccc(C(=O)NCC2(N3CCCCC3)CCCCC2)o1	inactive
Fc1ccccc1NC1CCN(Cc2ccccc2)CC1	inactive
Cc1ccc(NC2(C#N)CCN(Cc3ccccc3)CC2)cc1	inactive
CCOC(=O)N1CCC(Nc2cccc(C)c2)CC1	inactive
COc1cc(C(=O)NCC2(N(C)C)CCCCC2)ccc1OC(F)F	inactive
O=P1(N(CCCl)CCCl)SCCCS1	inactive
O=C(NCC1(N2CCCCC2)CCCCC1)c1ccc(F)cc1	inactive
CCOC(=O)N1CCC(Nc2ccc(F)cc2)CC1	inactive
COc1ccc(NC2CCN(CCc3ccccc3)CC2)c(OC)c1	inactive
O=C(NCC1(N2CCCCC2)CCCCC1)c1ccc(Cl)nc1	inactive
O=C(NCC1(N2CCCCC2)CCCCC1)c1ccc(Cl)s1	inactive
N#CC1(Nc2ccccc2)CCN(Cc2ccccc2)CC1	inactive
O=C1C(O)=C([N+](=O)[O-])C(=O)C(O)=C1[N+](=O)[O-]	inactive
CCOC(=O)N1CCC(Nc2ccc(OC)cc2)CC1	inactive
COc1ccc(C(=O)NCC2(N3CCCCC3)CCCCC2)cc1	inactive
CC(C)(C)OC(=O)N1CCC(N(C(=O)c2ccccc2)c2ccc(F)cc2)CC1	inactive
CCC(c1nnnn1C1CCCC1)N1CCC(n2c(=O)[nH]c3ccccc32)CC1 (stereo not given)	inactive
O=C(NCC1(N2CCCCC2)CCCCC1)c1ccc(=O)[nH]c1	inactive
O=C(NCC1(N2CCCCC2)CCCCC1)c1cccs1	inactive
Cc1cccc(NC2(C#N)CCN(Cc3ccccc3)CC2)c1	inactive
O=C(OC1CN2CCC1CC2)c1ccc([N+](=O)[O-])cc1 (stereo not given)	inactive

SMILES	Potency
CN1CCC(Nc2cccc(F)c2)CC1	inactive
O=C(NCC1(N2CCCCC2)CCCCC1)c1cncc(Br)c1	inactive
COc1ccc2c(c1O)-c1c(O)c(OC)cc3c1[C@H](C2)[N+](C)(C)CC3.O=[N+]([O-])c1cc([N+](=O)[O-])c([O-])c([N+](=O)[O-])c1[O-]	inactive
CCCCOc1ccccc1C(=O)NCC1(N2CCOCC2)CCCCC1	active: 16.4 µM
Cc1ccc(C(=O)NCC2(N(C)C)CCCCC2)o1	inactive
CCCOc1ccc(C(=O)NCC2(N(C)C)CCCCC2)cc1OC	inactive
CN(C)c1cccc(C(=O)NCC2(N3CCCCC3)CCCCC2)c1	inactive
COc1cc(OC)c(C(=O)NCC2(N(C)C)CCCCC2)cc1OC	inactive
CCN(CC)CCCNc1ccccc1[N+](=O)[O-].O=[N+]([O-])c1cc([N+](=O)[O-])c(O)c([N+](=O)[O-])c1	inactive
O=C(NCC1(N2CCOCC2)CCCCC1)c1cc(F)c(F)cc1Cl	inactive
O=C(NCC1(N2CCCCC2)CCCCC1)c1cccc(C(F)(F)F)c1	inactive
CCCOc1cccc(C(=O)NCC2(N3CCOCC3)CCCCC2)c1	inactive
O=C(NCC1(N2CCOCC2)CCCCC1)c1cc(=O)[nH]c2ccccc12	inactive
COc1cc(C(=O)NCC2(N3CCCCC3)CCCCC2)ccc1OC(F)F	inactive
COc1ccc(NC2CCN(C(=O)OC(C)(C)C)CC2)cc1	inactive
CN1CCN(CCOC(=O)C(O)(c2ccccc2)c2ccccc2)CC1	inactive
O=C(NCC1(N2CCCCC2)CCCCC1)c1ccc(OC(F)F)cc1	inactive
CCN1CCC(Nc2ccc(Cl)cc2)CC1	inactive
N#CC1(Nc2ccccc2)CCN(CCc2ccccc2)CC1	inactive
O=C(NCC1(N2CCCCC2)CCCCC1)c1cccc([N+](=O)[O-])c1	inactive
CSc1ccc(C(=O)NCC2(N3CCOCC3)CCCCC2)cc1	inactive
